Source: patent publication US20260199496A1, “LINKER, LINKER-CONTAINING ANTIBODY DRUG CONJUGATE, AND PREPARATION METHOD THEREFOR AND USE THEREOF” (CHENGDU CHIPSCREEN NEWWAY BIOSCIENCES CO., LTD., priority 2022, published 2026)
pKd: −log10 of the molar value.

Target: Rat PD-L1-his (Rattus norvegicus, UniProt D4AE25)
Experiment: SPR (Biacore T200) affinity for Rat PD-L1-his
Details: ligand Rat-PD-L1-His, 1:1 binding model
Method: […] Cyno PD-L1-his was captured onto the chip surface. The antibody-drug conjugate samples and the naked antibody sample were 2-fold diluted with 1×PBST to give a total of 7 concentration points, with the sample concentrations all being 25 nM-0.39 nM. The program was set. The samples were then loaded, and the program was executed. Data were analyzed using the Biacore Evaluation Software with the 1:1 binding model for kinetic fitting. The above steps were repeated. 2 μg/mL hPD-L1-his, 5 μg/mL mPD-L1-his, and 5 µg/mL Rat PD-L1-his were captured onto the chip surface separately. The above 4 samples were 2-fold diluted with 1×PBST. […] The program was set. The samples were then loaded, and the program was executed. Data were analyzed using the Biacore Evaluation Software with the 1:1 binding model for kinetic fitting.

pKd: 9.46
Substance: atezolizumab [Ate antibody]
